This is an account of results in patent publication US6713261B1, “Method for assessing genotoxicity of a compound” (Institut National de la Sante et de la Recherche Medicale, priority 1999, dated 2004).

This test deals with CTLL-2 cells. Description: Measurement of apoptosis (Annexin V-FITC, YOPRO-1) in CTLL-2 cells. In kind it is cell-based, mouse. Particulars: in parallel to micronucleus test.

As for anisomycin C, the “induction of apoptosis (result in words)” value is recorded as “induce apoptosis”.
